Screens as filed in PubChem.
Rows were chosen to be rich in hits. Some 16% of all compounds tested hit in one or more screens of this group.
uPA generation = blocks generation of uPA at the cell surface. AID 540303. Potency, µM (series often up to 38.3 µM), hits mostly inhibitors. 330,000 tested, 0.31% active. cell surface uPA generation assay, qHTS; active = well fitted inhibition curve with a large enough effect; inconclusive = small, poorly fitted or top-dose-only effect; inactive = no such curve, though single readings can be large or run the other way; tested in mouse RAW 264.7 cells; note: nearly all actives have a fitted effect of over 55% in size
miR-21 reporter = miR-21 reporter, rising signal; HeLa miR-21 FLuc reporter, luciferase, 48 h; Potency, µM (top dose mostly 38.3 µM); 340,000 tested, under 10 active; active = well fitted rising curve with a large enough effect; inconclusive = small, poorly fitted or top-dose-only effect; inactive = no such curve, though single readings can be large or run the other way;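 further: miR-21 action dims this reporter so a rising signal means less miR-21 action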
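Luminescence from a firefly luciferase reporter carrying a miR-21 binding site downstream, stably expressed under a CMV promoter in HeLa cells that make miR-21 endogenously, reports miRNA modulation after 48 h compound exposure up to approximately 40uM final.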
TDP1 cell CPT = DT40-hTDP1 cell growth loss with CPT; chicken DT40 Tdp1-/-;hTDP1 cells + 20 nM CPT, ATP luminescence, 48 h; Potency, µM (top dose mostly 46.2 µM), most hits filed as inhibitors; 420,000 tested, 12% active; note: nearly all actives have a fitted effect of over 55% in size
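Cell growth measured by CellTiter-Glo luminescence after a minimum 48 h, 37 C compound exposure with 20 nM CPT in Tdp1-knockout DT40 cells stably expressing hTDP1, seeded 400/well; qHTS titration format.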
TDP1 block = inhibitors of human tyrosyl-DNA phosphodiesterase TDP1; recombinant TDP1, AlphaScreen DNA substrate cleavage; Potency, µM (series often up to 130 µM), actives largely listed as inhibitors; 350,000 tested, 0.28% active; AID 485290; note: nearly all actives have a fitted effect of over 40% in size
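Tdp1 1 nM final; 15 min RT w/ cpd; substrate 15 nM, 5 min; beads 10 ug/ml, 10 min; AlphaScreen read. Neg ctrl: no enzyme.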
DT40 TDP1 no CPT = qHTS for Inhibitors of human tyrosyl-DNA phosphodiesterase 1 (TDP1): qHTS in cells in absence of CPT | 420,000 tested, 15% active | AID 686978, 2013 | Potency, µM (series often up to 46.2 µM), usual class: inhibitors | DT40 Tdp1-/- hTDP1 cells, no CPT, ATP luminescence, 48 h; note: nearly all actives have a fitted effect of over 55% in size
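Seeded 400 DT40-hTDP1 cells/well (vehicle DMSO, no 20 nM CPT); pinned compounds; ≥48 hr at 37 °C; CellTiter-Glo luminescence as viability measure.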
Large screens that a line does not name were inactive; ! = not active in a repeat. Unless noted, calls come from the whole dose curve; as a rule, active = well fitted curve in the direction sought with a large enough effect; inconclusive = small, poorly fitted or top-dose-only effect, or another doubt; inactive = no such curve, though single readings can be large; an effect the other way counts as inactive or inconclusive.

CCC1=C(OC(=O)N(CC)CC)N2C(=O)OC(=NCC(=O)OC)[C@]2(Cc2ccccc2)[C@H]2C1=CC[C@H]1C(=O)N(C)C(=O)[C@H]12	none
CCC1=C(OC(=O)N(CC)CC)N2C(=O)OC(=NCCc3c[nH]c4ccccc34)[C@]2(Cc2ccccc2)[C@H]2C1=CC[C@H]1C(=O)NC(=O)[C@H]12	TDP1 cell CPT inconclusive, DT40 TDP1 no CPT 16.4µM
O=C1CC(SCc2nc3ccccc3[nH]2)C(=O)N1c1cccc(F)c1 (stereo unspecified)	TDP1 cell CPT inconclusive, DT40 TDP1 no CPT inconclusive
Cc1nc(NC(=O)C2CC2)sc1C(=O)N1CCCCC1	none
Cc1nc(NC(=O)c2cccc(Cl)c2)sc1C(=O)N1CCCCC1	TDP1 cell CPT 18.4µM, DT40 TDP1 no CPT 18.4µM
CC(=O)Oc1oc(-c2ccccc2)nc1/C=N/c1ccccn1	TDP1 cell CPT 16.4µM, DT40 TDP1 no CPT 20.6µM
CN(C)c1ccc(N=Cc2nc(-c3ccccc3)oc2OC(=O)c2ccccc2)cc1	TDP1 cell CPT 18.4µM, DT40 TDP1 no CPT 23.1µM
COc1ccccc1C(=O)NC(=O)COC(=O)C1CCC1	none (no result: miR-21 reporter, TDP1 block)
CCN(CC)CC(=O)Nc1ccc(-c2ccc(NC(=O)CN(CC)CC)c(OC)c2)cc1OC	TDP1 cell CPT 13µM, DT40 TDP1 no CPT 9.2µM
COc1cc([N+](=O)[O-])ccc1NC(=O)CN(C)C	none
CCN(CC(=O)Nc1ccccc1OC)CC(=O)Nc1c(Cl)ccc(C)c1Cl	TDP1 cell CPT inconclusive, DT40 TDP1 no CPT 14.6µM
CCN(CC(=O)Nc1cccc(F)c1)CC(=O)Nc1ccccc1OC	none (no result: TDP1 block)
CC1(C(=O)O)CCN1C(=O)COc1ccc(Cl)cc1 (stereo unspecified)	none (no result: uPA generation, miR-21 reporter, TDP1 block)
COc1ccccc1OCCCN1CCC(C(O)(c2ccccc2)c2ccccc2)CC1	TDP1 cell CPT inconclusive, DT40 TDP1 no CPT 20.6µM (no result: uPA generation, miR-21 reporter, TDP1 block)
OC(c1ccccc1)(c1ccccc1)C1CCN(CCCOc2ccccc2Cl)CC1	TDP1 cell CPT 20.6µM, DT40 TDP1 no CPT 16.4µM (no result: uPA generation, miR-21 reporter, TDP1 block)
CCCCCCCCCCCCC/C=C/[C@@H](O)[C@@H](N)CO	TDP1 cell CPT 9.2µM!, DT40 TDP1 no CPT 11.6µM! (no result: miR-21 reporter)
CC(NC(=O)Cn1ccsc1=N)C12CC3CC(CC(C3)C1)C2 (stereo unspecified)	TDP1 cell CPT 16.4µM, DT40 TDP1 no CPT 23.1µM
CC1=C/C(=N\NC(=S)Nc2cccnc2)CC(C)(C)C1	uPA generation inconclusive, TDP1 cell CPT 1.3µM, DT40 TDP1 no CPT 2.06µM
CCN(C(=O)CSc1nc2ccc([N+](=O)[O-])cc2s1)C1CCS(=O)(=O)C1 (stereo unspecified)	DT40 TDP1 no CPT inconclusive
CCCc1nnc(NC(=O)CSc2nnc3c4ccccc4n(CC)c3n2)s1	TDP1 cell CPT inconclusive, DT40 TDP1 no CPT inconclusive (no result: uPA generation)
O=C(CN(CC1CCCO1)C(=O)CNS(=O)(=O)c1ccc(Cl)cc1)NC1CCCCC1 (stereo unspecified)	none
CCN(CC)C(=O)N1c2ccccc2C=Cc2ccccc21	miR-21 reporter inconclusive, TDP1 cell CPT 9.2µM, DT40 TDP1 no CPT 10.3µM
COC(=O)N1c2ccccc2C=Cc2ccccc21	TDP1 cell CPT inconclusive, DT40 TDP1 no CPT 20.6µM (no result: TDP1 block)
NC(=O)N1c2ccccc2C=Cc2ccccc21	TDP1 cell CPT inconclusive, DT40 TDP1 no CPT inconclusive
CCOc1cc(/C=C2\C(=O)N(c3ccc(C(N)=O)cc3)N=C2C)ccc1OC(=O)c1cccs1	TDP1 cell CPT 14.6µM, DT40 TDP1 no CPT 23.1µM
CCOc1cc(/C=C2/C(=O)N(c3ccccc3)N=C2C)ccc1OC(=O)c1ccco1	TDP1 cell CPT inconclusive, DT40 TDP1 no CPT inconclusive
O=C(CSC1=NCCN1)NC(c1ccccc1)c1ccccc1	TDP1 cell CPT inconclusive, DT40 TDP1 no CPT 20.6µM
O=C(CSC1=NCCN1)Nc1cccc([N+](=O)[O-])c1	TDP1 cell CPT 14.6µM, DT40 TDP1 no CPT 20.6µM
O=C(CSC1=NCCN1)Nc1ccccc1[N+](=O)[O-]	TDP1 cell CPT inconclusive, DT40 TDP1 no CPT 20.6µM
CCn1c(SCC(=O)Nc2ccc(C)cc2)nnc1-c1ccccn1	TDP1 cell CPT inconclusive
O=C(CSC1=NC(=O)C(c2ccccc2)C(=O)N1)Nc1ccccc1[N+](=O)[O-] (stereo unspecified)	none (no result: TDP1 block)
Cc1cc(=O)[nH]c(SCC(=O)NC(c2ccccc2)c2ccccc2)n1	DT40 TDP1 no CPT inconclusive
Cc1ccc(NC(=O)CSC2=NCCN2)cc1	TDP1 cell CPT 23.1µM, DT40 TDP1 no CPT 18.4µM
CCCN(CC(=O)Nc1ccccc1C)C(=O)/C=C/c1ccc(S(=O)(=O)N2CCCCCC2)cc1	TDP1 cell CPT inconclusive, DT40 TDP1 no CPT 20.6µM (no result: miR-21 reporter, TDP1 block)
COc1ccc(/C=C/C(=O)N(C)CC(=O)Nc2cccc(F)c2)cc1S(=O)(=O)N1CCCCC1	uPA generation inconclusive, TDP1 cell CPT 18.4µM, DT40 TDP1 no CPT 16.4µM (no result: miR-21 reporter)
COc1ccc(NC(=O)CN(C)C(=O)/C=C/c2ccc(S(=O)(=O)N3CCCCCC3)cc2)cc1	TDP1 cell CPT inconclusive, DT40 TDP1 no CPT 18.4µM (no result: miR-21 reporter, TDP1 block)
COc1ccc(NC(=O)CN(C)Cc2c(F)cccc2Cl)cc1S(=O)(=O)N1CCCCC1	none
CCCN(CC(=O)Nc1ccccc1C)C(=O)c1ccc(S(=O)(=O)N2CCCCCC2)cc1	none
COc1ccc(NC(=O)CN(C)C(=O)/C=C/c2ccc(OCc3ccccc3)cc2)cc1	DT40 TDP1 no CPT inconclusive (no result: uPA generation, TDP1 block)
CC(C)C(=O)Nc1cccnc1	none
Cc1ccc(-c2csc3ncnc(Sc4nnc(CN5CCCCCC5=O)o4)c23)cc1	miR-21 reporter inconclusive, TDP1 cell CPT 4.11µM, DT40 TDP1 no CPT 6.51µM
COc1cc(NC(=O)Cn2c(=O)oc3cc(S(=O)(=O)N4CCCCCC4)ccc32)cc(OC)c1	TDP1 cell CPT 14.6µM, DT40 TDP1 no CPT 20.6µM (no result: uPA generation)
COc1ccc(NC(=O)Cn2c(=O)oc3cc(S(=O)(=O)N4CCCC4)ccc32)cc1OC	TDP1 cell CPT inconclusive, DT40 TDP1 no CPT inconclusive (no result: uPA generation)
CCc1ccc(NC(=O)Cn2c(=O)oc3cc(S(=O)(=O)N4CCCCCC4)ccc32)cc1	TDP1 cell CPT 11.6µM, DT40 TDP1 no CPT 9.2µM (no result: uPA generation)
CCOc1ccc(NC(=O)Cn2c(=O)oc3cc(S(=O)(=O)N4CCC(C)CC4)ccc32)cc1	TDP1 cell CPT 9.2µM, DT40 TDP1 no CPT 8.2µM (no result: uPA generation)
CCCCCOP(=O)(c1ccccc1)c1ccccc1	TDP1 cell CPT inconclusive, DT40 TDP1 no CPT inconclusive
Cn1c(-c2ccccc2)cnc1SCC(=O)N1CCCCC1	none
COc1ccc(-c2cc(-c3cccs3)nc3sc(C#N)c(N)c23)cc1	DT40 TDP1 no CPT inconclusive
N#Cc1sc2nc(C3CC3)cc(-c3ccc(Cl)cc3)c2c1N	TDP1 cell CPT 16.4µM, DT40 TDP1 no CPT inconclusive (no result: TDP1 block)
CCC1CN(C(=O)NCc2cccc(OC)c2)c2ccccc2O1 (stereo unspecified)	TDP1 cell CPT inconclusive, DT40 TDP1 no CPT 14.6µM
CCC1CN(C(=O)NCc2cccc(OC)c2)c2cc(Cl)ccc2O1 (stereo unspecified)	TDP1 cell CPT 14.6µM, DT40 TDP1 no CPT inconclusive
CN(C)c1ncc2nc(-c3cccs3)c(=O)n(C)c2n1	none (no result: uPA generation, miR-21 reporter, TDP1 block)
